Biological target: T1, CypA (Homo sapiens, UniProt P62937)
T1 construct: hexahistidine tag (His-Tag) (C); made in house; host or cells: E. coli C41(DE3)
Assay: PPIase enzyme assay (chymotrypsin-coupled), CypA
Assay type: biochemical
Details: 20 °C, mean±s.d.
Description: CypA and CypB proteins carrying a hexahistidine tag (His-Tag) at their carboxy terminus were expressed in E. coli and purified. Briefly, cultures of C41(DE3) cells were grown at 37 °C for 1 h until the culture reached an OD of 0.6 at 600 nm and then induced with 1 mM isopropyl-β-D-thiogalactopyranoside for 4 h at 37 °C (CypA) or overnight at 22 °C (CypB). Cell pellets were resuspended in a lysis buffer 20 mM NaH2PO4 pH 7.8, 300 mM NaCl, 7 mM β-mercaptoethanol, 1 mg ml^−1 lysozyme, 0.1 U μl^−1 desoxyribonuclease and complete protease inhibitor tablets (Roche Diagnostics Corporation, Indianapolis, Indiana). […] The bound protein was eluted in 1 ml fractions with a buffer composed of 20 mM NaH2PO4 pH 7.8, 300 mM NaCl, 250 mM imidazole, 7 mM β-mercaptoethanol and 10% glycerol, monitored by the Bradford colorimetric assay. The purity of each cyclophilin was determined by Coomassie-stained SDS–PAGE analysis.

Protein sequences, listed by entry. Tags and fused reporters are not part of them.
UniProt P62937, whole entry: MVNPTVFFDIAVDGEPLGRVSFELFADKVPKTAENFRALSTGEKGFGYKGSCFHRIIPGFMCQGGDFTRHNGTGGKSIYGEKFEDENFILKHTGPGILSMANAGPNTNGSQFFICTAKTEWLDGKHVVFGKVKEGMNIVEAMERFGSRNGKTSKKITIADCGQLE

SMILES: O=C(NC(=O)c1c(F)cccc1Cl)NC1c2ccccc2-c2ccccc21 [TMN-355, reference compound]
- IC50: > 100 µM

— article PMC5036131, “Fragment-based discovery of a new family of non-peptidic small-molecule cyclophilin inhibitors with potent antiviral activities” (Nature Communications, 2016)
